Source: PubChem
Vif imaging = HIV Vif self-association inhibitors, primary screen, imaging, HEK293T, single point. HEK293T cells, Vif self-association by quenched fluorescence, 24 h. inhibition, % at 7.49 µM. AID 602346, 2012. hit rate 0.35% among 340,000; in the data active means inhibition above about 50%, passing the limit was not always enough
CAL PDZ FP-1 = CAL PDZ peptide-binding inhibitors, primary screen, biochemical, fluorescence polarization, Cer-tagged CAL PDZ, HTS; Golgi-associated PDZ and coiled-coil motif-containing protein (Homo sapiens), Q9HD26; purified CAL PDZ, TMR-peptide fluorescence polarization, 1 h; hit rate 0.02% among 330,000; AID 504414, 2011; inhibition, % at 20 µM;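 active means highest replicate inhibition of at least 40%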;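 further: plate controls were DMSO neutral control wells for no effect and unlabeled competitor peptide control wells for full effect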
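System: purified tagged CAL PDZ domain construct (CerCALP). Schedule: 1 h incubation at room temperature before polarization reading. Medium: 25 mM sodium phosphate pH 7.4, 150 mM NaCl, TCEP, IgG, Thesit. Read-out: percent inhibition from loss of millipolarization. Measured by: FP readout, S and P plane fluorescence. Probe or stimulus: fluorescent TMR peptide probe.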
PglD inh = C. jejuni PglD acetyltransferase inhibitors, primary screen, biochemical, DTNB colorimetric, single point; purified PglD enzyme, DTNB colorimetric CoA detection; hit rate 0.098% among 360,000; inhibition, % at 12.5 µM; in the data active means inhibition above about 16%, passing the limit was not always enough
CAL PDZ FP-2 = untagged CAL PDZ binding inhibitors, primary screen, biochemical, fluorescence polarization, HTS; purified CAL PDZ, TMR-peptide fluorescence polarization, 1 h; hit rate 0.92% among 300,000; inhibition, % at 24.9 µM; AID 602252, 2012;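 active means mean inhibition of at least 30% with at least half of replicates also reaching 30%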;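 further: 0% = DMSO neutral control and 100% = excess unlabeled competitor peptide PRC23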
Yeast UUG start = alters start codon recognition fidelity in yeast; S. cerevisiae UUG-firefly luciferase reporter, luminescence/redox ratio; activity score, % at 18.7 µM; hit rate 0.13% among 350,000;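 active = replicate mean at a twofold rise or more, about +100% in these data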;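 also: firefly luciferase made from a UUG start codon reports start codon fidelity; reporter light over untreated wells divided by growth signal over untreated wells; some hits fall short of that in this replicate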
ARNT TACC3 PPI = disruptors of ARNT/TACC3 protein interaction, primary screen, biochemical, AlphaScreen, single concentration | AID 623870, 2012 | inhibition, % at 9.99 µM | hit rate 0.66% among 390,000 | AlphaScreen His-ARNT PAS-B/GST-TACC3 binding, luminescence; TACC3 fragment carries E629A point mutation;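 active means mean inhibition of replicates at least 50% and at least half of replicates each reaching 50%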;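 further: 0% = complete ARNT plus TACC3 wells and 100% = ARNT alone without TACC3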
PglD confirm = PglD acetyltransferase inhibitors, confirmation, biochemical, DTNB absorbance, single point, cherry-picked samples | shares compounds with PglD inh | Purified C. jejuni PglD, DTNB absorbance 412 nm | inhibition, % at 20 µM | 320 tested, under 10 active | AID 743156, 2013;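 active means mean inhibition across replicates of at least 20% with every single replicate also at 20% or more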;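 further: initial rate of CoA release by acetyl transfer from AcCoA to the UDP-4-amino sugar; 0% = median of neutral control wells and 100% = median of positive control wells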
Numbers without * were called inactive; . = no result given. Most compounds without a hit are left out; they make up all but 1.6% or so of the library.

1. C[C@H]1CN([C@@H](C)CO)C(=O)Cc2cc(NC(=O)Cc3ccccc3)ccc2O[C@@H]1CN(C)S(=O)(=O)c1ccc(F)cc1
2. CO[C@@H]1CN(C)C(=O)c2cc(NS(=O)(=O)c3cn(C)cn3)ccc2OC[C@@H](C)N(Cc2cccc(F)c2)C[C@H]1C
3. C[C@@H]1CN([C@H](C)CO)C(=O)c2cccc(NC(=O)Nc3cccc4ccccc34)c2O[C@@H]1CN(C)S(C)(=O)=O
4. COc1ccc(CONS(=O)(=O)c2ccc(NC(C)=O)cc2)cc1Cl
5. CCN(CC)CC(=O)Nc1sc(C)cc1C(=O)c1ccccc1
Screen / compound no.,1,2,3,4,5
Vif imaging,.,.,.,-12,-8
CAL PDZ FP-1,.,.,.,-3,-1
PglD inh,0,1,-1,22*,-4
CAL PDZ FP-2,.,.,.,-3,1
Yeast UUG start,1,-6,6,-6,-7
ARNT TACC3 PPI,2,1,-2,-2,8
PglD confirm,.,.,.,3,.

6. CCN(CC)CC(=O)Nc1sc(C)cc1C(=O)c1ccc(C)cc1
7. COc1cccc(NC(=O)N[C@@H]2C=C[C@H](CC(=O)N3CCCCC3)O[C@H]2CO)c1
8. CC(C)OCCCn1c(=NC(=O)c2cccs2)c(C#N)cc2c(=O)n3ccccc3nc21
9. CC(C)OCCCn1c(=NC(=O)c2ccncc2)c(C#N)cc2c(=O)n3ccccc3nc21
10. CCOc1ccccc1NC(=S)N1CCC(c2nc3ccccc3o2)CC1
Screen / compound no.,6,7,8,9,10
Vif imaging,-11,.,-7,.,2
CAL PDZ FP-1,0,.,.,0,-1
PglD inh,22*,-3,68*,4,21*
CAL PDZ FP-2,.,.,.,0,-1
Yeast UUG start,-5,6,-10,-13,-33
ARNT TACC3 PPI,-4,-8,.,-9,-3
PglD confirm,11,.,-8,.,-1

11. COc1cc2cc(CCCOC(=O)c3ccc(C(F)(F)F)cc3)oc(=O)c2cc1OC
12. COc1ccc(NC(=O)Nc2ccc3c(c2)C(=O)N([C@@H](C)CO)C[C@@H](C)[C@@H](CN(C)C(=O)Nc2cccc4ccccc24)OCCCC[C@@H](C)O3)cc1
13. COc1ccc(NC(=O)Nc2cccc3c2O[C@H](CN(C)C(=O)Nc2ccc(OC)cc2)[C@H](C)CN([C@H](C)CO)C3=O)cc1
14. COc1ccc(S(=O)(=O)N(C)C[C@H]2Oc3ccc(NC(=O)Cc4ccccc4)cc3CC(=O)N([C@@H](C)CO)C[C@H]2C)cc1
15. COc1ccc(OC)c(NC(=O)N2CCCc3ccccc32)c1
Screen / compound no.,11,12,13,14,15
Vif imaging,-4,.,.,.,-1
CAL PDZ FP-1,0,.,.,.,-1
PglD inh,35*,0,0,2,5
CAL PDZ FP-2,-2,.,.,.,2
Yeast UUG start,6,-12,17,2,-16
ARNT TACC3 PPI,2,-2,2,-4,2
PglD confirm,6,.,.,.,.

16. COc1ccc(NC(=O)N2CCCc3cc(C)ccc32)c(OC)c1
17. COc1ccc(CSc2nc(O)cc(=O)n2CC(C)C)cc1F
18. Cc1cc(C)c2c(NC(N)=S)n[nH]c2n1
19. Cc1cc2[nH]ncc2cc1NC(N)=S
20. Cc1noc(C)c1C(=O)N(C)C[C@@H]1OCc2ccccc2-c2c(n(C)c3ccccc23)C(=O)N([C@@H](C)CO)C[C@@H]1C
Screen / compound no.,16,17,18,19,20
Vif imaging,-5,-6,1,-1,.
CAL PDZ FP-1,-1,0,0,-1,.
PglD inh,30*,21*,26*,7,-2
CAL PDZ FP-2,2,.,1,-1,.
Yeast UUG start,-5,-3,-6,-21,.
ARNT TACC3 PPI,5,-3,-4,.,-1
PglD confirm,-8,2,0,.,.

21. COc1ccc(C#Cc2ccc3c(c2)O[C@H](CN(C)C(=O)c2ccccn2)[C@@H](C)CN([C@@H](C)CO)S3(=O)=O)cc1
22. NC(=O)CC(NC(=O)c1ccc(Cl)cc1)C(=O)NCCc1ccc(S(N)(=O)=O)cc1 (stereo not drawn)
23. COC(=O)C1CSC(C(=O)OC)N1C(=O)CN1CCN(c2ccc(OC)cc2)CC1 (stereo not drawn)
24. COc1ccc(N2CCN(CC(=O)Nc3ccc(C)cc3)CC2)cc1
25. O=C(NCCCN1CCN(c2cccc(Cl)c2)CC1)c1ccc(N2CCCC2=O)cc1
Screen / compound no.,21,22,23,24,25
Vif imaging,.,1,4,2,7
CAL PDZ FP-1,.,-3,-2,1,-2
PglD inh,0,23*,59*,-3,35*
CAL PDZ FP-2,.,-7,-3,-2,-2
Yeast UUG start,7,6,-25,-5,-5
ARNT TACC3 PPI,11,2,-11,.,6
PglD confirm,.,0,3,.,6

Three entries from above, reformatted:
entry | Structure | Vif imaging | CAL PDZ FP-1 | PglD inh | CAL PDZ FP-2 | Yeast UUG start | ARNT TACC3 PPI | PglD confirm
21 | COc1ccc(C#Cc2ccc3c(c2)O[C@H](CN(C)C(=O)c2ccccn2)[C@@H](C)CN([C@@H](C)CO)S3(=O)=O)cc1 | . | . | 0 | . | 7 | 11 | .
22 | NC(=O)CC(NC(=O)c1ccc(Cl)cc1)C(=O)NCCc1ccc(S(N)(=O)=O)cc1 (stereo not drawn) | 1 | -3 | 23* | -7 | 6 | 2 | 0
23 | COC(=O)C1CSC(C(=O)OC)N1C(=O)CN1CCN(c2ccc(OC)cc2)CC1 (stereo not drawn) | 4 | -2 | 59* | -3 | -25 | -11 | 3

(listing goes on)
26. O=C(NCCCN1CCN(c2cccc(Cl)c2)CC1)c1cccc(N2CCCC2=O)c1
27. Cc1cc(=O)[nH]c(SCC(=O)Nc2ccc(Br)cc2)c1C#N
28. O=C(NNS(=O)(=O)c1ccccc1)c1sccc1-n1cccc1
29. O=C(NNS(=O)(=O)c1ccc(Cl)cc1)c1sccc1-n1cccc1
30. Cc1cccc(C(=O)NCCNC(=O)c2ccco2)c1
Screen / compound no.,26,27,28,29,30
Vif imaging,-5,-8,-2,-2,-8
CAL PDZ FP-1,-1,-2,-2,-2,0
PglD inh,.,21*,3,25*,20*
CAL PDZ FP-2,-2,-2,-2,0,.
Yeast UUG start,.,-6,-12,21,2
ARNT TACC3 PPI,13,0,-3,1,-2
PglD confirm,.,3,.,6,10

31. COC(=O)Nc1ccc(S(=O)(=O)Nc2ccccc2F)cc1
32. COC(=O)Nc1ccc(S(=O)(=O)Nc2cc(C(F)(F)F)c[nH]c2=O)cc1
33. CCC/C(=N\NC(=O)CNC(=O)/C=C/c1ccco1)c1ccccc1
34. O=C(O)CC/C(=N\NC(=O)CNC(=O)/C=C/c1ccccc1)c1ccccc1
35. COc1ccc(S(=O)(=O)Nc2ccc3c(c2)C(=O)N([C@@H](C)CO)C[C@@H](C)[C@H](CN(C)S(=O)(=O)c2ccc(Cl)cc2)O3)cc1
Screen / compound no.,31,32,33,34,35
Vif imaging,.,4,-2,-4,.
CAL PDZ FP-1,-1,-2,1,1,.
PglD inh,4,31*,0,26*,5
CAL PDZ FP-2,-4,-3,.,4,.
Yeast UUG start,-10,2,-11,-20,-2
ARNT TACC3 PPI,.,-11,5,-5,15
PglD confirm,.,1,.,2,.

36. O=C(O)CSc1cc(C(=O)c2ccccc2O)cn2c(=O)c3c4c(sc3nc12)CCCC4
37. Clc1ccc(-c2noc(CN3CCCC3)n2)cc1
38. Cc1ccc(-c2noc(CN3CCCCC3)n2)cc1
39. Cc1c(C(=O)O)oc2c3c(ccc12)OCCO3
40. CCC(=O)C1=C(O)C(c2cccc(Oc3ccccc3)c2)CCC1=O (stereo not drawn)
41. COc1ccc2c(c1)C(=O)CCC2c1ccccc1 (stereo not drawn)
Screen / compound no.,36,37,38,39,40,41
Vif imaging,3,4,-3,10,-7,-2
CAL PDZ FP-1,-15,-1,0,-1,-2,.
PglD inh,22*,31*,0,24*,28*,7
CAL PDZ FP-2,-6,-6,-3,1,-1,-7
Yeast UUG start,-14,-19,-11,-13,-11,-16
ARNT TACC3 PPI,-5,3,-9,1,.,-6
PglD confirm,1,-4,.,-2,1,.
